Test results: patent US10028961B2, “Therapeutically active compounds and their methods of use” (AGIOS PHARMACEUTICALS, INC., priority 2013, dated 2018)

Protein sequences, listed by entry. Tags and fused reporters are not part of them.
UniProt O75874, whole entry R132C: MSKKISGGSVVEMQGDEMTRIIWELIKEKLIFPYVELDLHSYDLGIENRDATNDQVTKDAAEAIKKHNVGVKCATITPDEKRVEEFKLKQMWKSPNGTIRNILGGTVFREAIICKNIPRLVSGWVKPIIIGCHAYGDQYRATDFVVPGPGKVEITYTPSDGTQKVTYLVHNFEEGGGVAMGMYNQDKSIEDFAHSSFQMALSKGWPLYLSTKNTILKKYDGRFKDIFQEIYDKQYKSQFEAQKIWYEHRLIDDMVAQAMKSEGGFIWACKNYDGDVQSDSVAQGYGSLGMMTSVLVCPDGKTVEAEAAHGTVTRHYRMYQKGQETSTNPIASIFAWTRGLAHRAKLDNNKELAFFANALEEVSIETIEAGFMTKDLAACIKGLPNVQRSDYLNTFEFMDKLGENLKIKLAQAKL
UniProt O75874, whole entry R132H: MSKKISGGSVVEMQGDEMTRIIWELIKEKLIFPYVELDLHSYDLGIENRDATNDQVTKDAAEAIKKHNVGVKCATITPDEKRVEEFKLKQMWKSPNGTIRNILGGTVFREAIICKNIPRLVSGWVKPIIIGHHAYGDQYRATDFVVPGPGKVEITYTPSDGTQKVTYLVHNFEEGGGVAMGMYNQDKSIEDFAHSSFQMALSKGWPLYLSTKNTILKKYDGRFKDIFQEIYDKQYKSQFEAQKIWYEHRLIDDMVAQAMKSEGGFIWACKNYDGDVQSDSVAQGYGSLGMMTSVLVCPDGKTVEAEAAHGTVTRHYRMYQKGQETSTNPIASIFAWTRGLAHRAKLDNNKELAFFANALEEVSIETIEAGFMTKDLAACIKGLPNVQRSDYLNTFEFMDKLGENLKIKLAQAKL
UniProt O75874, whole entry, stated change not applied: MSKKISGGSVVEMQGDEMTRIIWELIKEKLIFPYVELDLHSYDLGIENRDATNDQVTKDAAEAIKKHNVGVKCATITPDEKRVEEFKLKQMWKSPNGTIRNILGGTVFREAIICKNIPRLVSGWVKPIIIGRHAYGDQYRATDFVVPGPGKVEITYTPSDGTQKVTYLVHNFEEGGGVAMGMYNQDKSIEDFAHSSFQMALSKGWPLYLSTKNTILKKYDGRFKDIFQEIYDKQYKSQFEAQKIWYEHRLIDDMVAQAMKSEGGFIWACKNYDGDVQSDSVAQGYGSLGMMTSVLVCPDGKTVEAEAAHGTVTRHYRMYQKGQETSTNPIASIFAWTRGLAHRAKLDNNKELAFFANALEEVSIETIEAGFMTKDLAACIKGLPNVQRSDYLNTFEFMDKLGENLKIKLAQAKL

Assays:
Assay type in all cases: biochemical
IDH1 R132C = IDH1 R132C (Homo sapiens (Human), UniProt O75874, R132C); test: In vitro assay IDH1 R132C homodimer, NADPH depletion assay
Description: The following describes the experimental procedures that can be used to obtain data on columns 3 and 6 of Table 4.
(§1) A test compound is prepared as 10 mM stock in DMSO and diluted to 50× final concentration in DMSO, for a 50 μl reaction mixture. IDH enzyme activity converting alpha-ketoglutarate to 2-hydroxyglutaric acid is measured using a NADPH depletion assay. In the assay the remaining cofactor is measured at the end of the reaction with the addition of a catalytic excess of diaphorase and resazurin, to generate a fluorescent signal in proportion to the amount of NADPH remaining. […] The reaction is started with the addition of 10 μl of Substrate Mix ([…], 5 mM alpha-ketoglutarate, in Assay Buffer) and the mixture is incubated for 90 minutes at room temperature.
The concentration of NADPH and alpha-ketoglutarate in the Substrate Buffer is 20 μM and 1 mM, respectively.

[1] = target: IDH1 wt/IDH1 R132H heterodimer (Homo sapiens (Human), UniProt O75874, R132H); test: In vitro assay for IDH1m R132H inhibitors, IDH1 wt/IDH1 R132H heterodimer, NADPH depletion (diaphorase/resazurin); settings: NADPH/NADP, not saturated
Description: (§2) The following describes the experimental procedures that can be used to obtain data on columns 2 and 4 of Table 4 and column 2 of Table 5.
(§3) In the primary reaction, the reduction of α-KG acid to 2-HG is accompanied by a concomitant oxidation of NADPH to NADP. The amount of NADPH remaining at the end of the reaction time is measured in a secondary diaphorase/resazurin reaction in which the NADPH is consumed in a 1:1 molar ratio with the conversion of resazurin to the highly fluorescent resorufin.
The mixture of compound, enzyme, and cofactor is pre-incubated at room temperature for 1 hr prior to the addition of alpha-ketoglutarate. To perform the secondary reaction, 10 uL of 1× buffer containing 36 μg/ml diaphorase and […] resazurin is added to the primary reaction and incubated for a further 5 minutes at 25° C. […] Compounds or compound dilutions are prepared in 100% DMSO concentration and diluted 1:50 into the final reaction. […] IC50s are determined.
IDH1 or IDH2 wildtype (wt) and mutant heterodimers are expressed and purified by methods known in the art. […] Co-expression of IDH1wt-his and IDH1R132C-flag is carried out in sf9 insect cells. Cells (25 g) are resuspended in 250 ml of 50 mM Tirs, 500 mM NaCl, pH7.4, at 4° C. with stirring. […]

[2] = target: IDH1 wt/IDH1 R132C heterodimer (Homo sapiens (Human), UniProt O75874, R132C); test: In vitro assay for IDH1m R132C inhibitors, IDH1 wt/IDH1 R132C heterodimer, NADPH depletion (diaphorase/resazurin); settings: NADPH/NADP
Description: as §2, §3
The mixture of compound, enzyme, and cofactor is pre-incubated at room temperature for 1 hr prior to the addition of alpha-ketoglutarate. To perform the secondary reaction, 10 uL of 1× buffer containing 36 μg/ml diaphorase and […] resazurin is added to the primary reaction and incubated for a further 5 minutes at 25° C. Florescence is read on a Spectramax platereader at Ex 544 Em 590. Compounds or compound dilutions are prepared in 100% DMSO concentration and diluted 1:50 into the final reaction. […] IC50s are determined.
IDH1 or IDH2 wildtype (wt) and mutant heterodimers are expressed and purified by methods known in the art. For example, IDH1wt/R132m heterodimer is expressed and purified as follows. Co-expression of IDH1wt-his and IDH1R132C-flag is carried out in sf9 insect cells. Cells (25 g) are resuspended in 250 ml of 50 mM Tirs, 500 mM NaCl, pH7.4, at 4° C. with stirring. […]

[3] = target: IDH1-R132H homodimer enzyme (Homo sapiens (Human), UniProt O75874, R132H); test: In vitro assay IDH1-R132H homodimer, NADPH depletion assay with NADPH/NADP preincubation; settings: 5 μM NADPH and 37.5 μM NADP
Description: The following describes the experimental procedures that can be used to obtain data on columns 3 and 5 of Table 5.
as §1, with “60” for “90”

C[C@H](Nc1cc(N[C@@H](C)C2CC2)nc(-c2cccc(C(F)(F)F)n2)n1)C1CC1 [Compound 416]
IC50 (IDH1 R132C): > 1 µM

FC1(F)CC2(CC(Nc3nc(Nc4ccnc(C(F)(F)F)c4)nc(-c4cccc(C(F)(F)F)n4)n3)C2)C1 [Compound 257]
IC50 [1]: 0.1 to 1 µM
IC50 [2]: 0.1 to 1 µM
IC50 [3]: 0.1 to 1 µM
